Structures can show the parent of a compound that is named as a salt.
Tested on: VGLUT
Experiment: Inhibition of 3H-L-Glu uptake into synaptic vesicles prepared from rat brain
Conditions: compound at 250 µM; 3H-L-Glu 250 µM

Row | Compound | reduction (block) of L-Glu uptake
1 | CC(=O)[C@H]1CC[C@H]2[C@@H]3CC[C@@H]4C[C@H](O)CC[C@]4(C)[C@H]3CC[C@]12C [Pregnanolone] | did not block L-Glu uptake to any appreciable level
2 | C[C@]12CC[C@@H]3c4ccc(OS(=O)(=O)O)cc4CC[C@H]3[C@@H]1CCC2=O [Estrone sulfate] | 50%

Source: paper PMC3943356 (Bioorganic & medicinal chemistry letters, 2013)
